The test system of data set [1] is in vivo mouse model of cognition. The settings on record: antipsychotic alone; FIG. 18.
Data set [2] concerns radial arm maze in vivo mouse model of cognition. To be noted: risperidone alone; FIG. 19.
For data set [3] the following is noted: in vivo, po.
In another data set the test system is catalepsy in rats. Put plainly: Catalepsy assessment.
The conditions of data set [4]: for Final mean weight: end of study.
For data set [5] the following is noted: initial parameter for simulation, 5 mg once daily oral.
The nature of the next data set: clinical. To be noted: in vivo, po, 4 mg.

The structures appear in SMILES notation. Read-outs that look alike come from different tables or passages of the source.

In the case of `Cc1nc2n(c(=O)c1CCN1CCC(c3noc4cc(F)ccc34)CC1)CCCC2` [Risperidone, risperidone], the “percent novel object recognition” value in data set [1] was “novel object recognition impairment”. Moreover, the “working memory errors after repeated trials” value in data set [2] is “cognitive deficit”. In data set [3], this compound had a CLD2/F of 9885.5 mL/h and a V2/F of 157245.7 mL. In addition, the CL/F in data set [3] (4 mg) came to 14408.8 L/h. The “CD50 (dose that elicits 50% of maximum catalepsy)” value in the data set on catalepsy in rats (agent alone, ip) is on record as 1.1 mg/kg. Further, in the data set on catalepsy in rats (in the presence of 1 mg/kg pimavanserin sc), the CD50 was 2.0 mg/kg. For the same compound, in the data set on catalepsy in rats (in the presence of 3 mg/kg pimavanserin sc), the CD50 stood at 4.4 mg/kg. Moreover, the CD50 with catalepsy in rats (in the presence of 10 mg/kg pimavanserin sc) came to 5.1 mg/kg. In data set [4] (2 mg risperidone per day), this compound showed a Mean weight gain of 1.1540 kg and a Final mean weight of 81.856 kg. Besides, in data set [4] (6 mg risperidone per day), the Mean weight gain turned out to be 2.1162 kg and the Final mean weight came out at 81.332 kg. Besides, the “serum prolactin levels, dose response” value in the data set with serum prolactin levels (compared to vehicle controls, pimavanserin up to 3 mg/kg, FIG. 20A) is recorded as “dose-dependent increase in serum prolactin levels”. Also, in the data set with serum prolactin levels (fixed dose haloperidol (0.1 mg/kg) or risperidone (0.01 mg/kg) in the presence of pimavanserin, FIG. 20B), the magnitude of prolactinemia result is recorded as “significantly attenuated”. In the data set on serum prolactin levels (risperidone 0.01 mg/kg ip, vehicle 24±3), this compound yielded a serum prolactin levels of 102 ± 12 ng/mL. In data set [5], this compound showed a CL/F of 14409 mL/h, a CLD2/F of 9886 mL/h and a V2/F of 157246 mL. In addition, in the data set “clinical”, the AUC turned out to be 278 ng·h/mL, the Cmax was 25.8 ng/mL and the Tmax turned out to be 2.4 h.

As for `Cc1cc2c(s1)Nc1ccccc1N=C2N1CCN(C)CC1` [olanzapine], the “percent novel object recognition” value in data set [1] is “novel object recognition impairment”.

For orientation: CL/F means the apparent clearance, not corrected for the fraction that reaches the circulation. By AUC is commonly meant concentration integrated over time. The low end stands for less exposure, the high end for more exposure. For orientation: Cmax means the peak of the concentration-time curve. In general, Tmax refers to the time from dosing to the highest level.
